Nrf2 block = Nrf2 pathway inhibition; A549 ARE-Fluc reporter, luciferase luminescence, 18-24 h; Potency, µM (top dose mostly 46 µM), hits mostly inhibitors; 360,000 compounds, 2.1% hits; note: nearly all actives have a fitted effect of over 60% in size
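Cells were seeded and rested 2 h, then exposed to compounds for 18-24 h. CellTiter-Fluor was read first as a viability measure. BugLite was added 15 min before the final luminescent read of ARE-luciferase activity in A549 cells.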
miR-21 reporter = raises the signal of a miR-21 reporter | AID 2288 | 340,000 tested, under 10 active | Potency, µM (series often up to 38.3 µM) | HeLa miR-21 FLuc reporter, luciferase, 48 h; active = well fitted rising curve with a large enough effect; inconclusive = small, poorly fitted or top-dose-only effect; inactive = no such curve, though single readings can be large or run the other way;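 further: miR-21 action dims this reporter so a rising signal means less miR-21 action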
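HeLa cells stably expressing CMV-driven firefly luciferase with a downstream miR-21 binding sequence, endogenously expressing miR-21, were treated with titrations (up to about 40uM final) for 48 hours at 37 degree Celsius. Luciferase luminescence was read after lysis.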
Nrf2 activator = Nrf2 pathway activation; AREc32 ARE-luciferase reporter (MCF7-derived line), luminescence, 24 h; AID 624171; Potency, µM (doses to about 46.1 µM), usual class: activators; 410,000 compounds, 0.31% hits; note: nearly all actives have a fitted effect of over 65% in size
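Nrf2 activation is followed as ARE-luciferase induction in the AREc32 line after one day of compound treatment; luminescence is read with Steady-Glo.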
IL-2 act = activates IL-2 in a cell-based reporter assay; IL-2 activation reporter assay, cell-based qHTS; stimulated with anti-CD3/CD4/CD28 beads; in transgenic mouse T cells; activation, % (series mostly up to about 46 µM); 360,000 compounds, 0.065% hits; in the data active = activation above about 50%; inconclusive = mostly about 30% to 49%
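Readout: EGFP and DsRed signals by fluorescent plate cytometry. Unstimulated transgenic mouse T cells received compound 60 min before antibody-bead stimulation, then incubated 18 h at 37 degrees C.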
A549 tox = kills or reduces viability of A549 cells in Nrf2 counter-screen. A549 ARE-Fluc cells, CellTiter-Fluor viability, 18-24 h. Potency, µM (top dose mostly 46 µM), most hits filed as inhibitors. 390,000 compounds, 0.16% hits. AID 504648
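Cytotoxicity counterscreen: CellTiter-Fluor fluorescence was measured in A549 ARE_Fluc cells after 18-24 h of compound exposure in a concentration series. The subsequent BugLite luminescent read reports ARE-luciferase activity.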
ClpP mod = qHTS Assay for Activators of ClpP; ATP-dependent Clp protease proteolytic subunit (Bacillus subtilis (strain 168)), P80244; 340,000 compounds, 1.9% hits; AID 651965, 2013; Potency, µM (series often up to 57.5 µM); purified B. subtilis ClpP, FRET peptide cleavage, 20 min; active = well fitted falling curve with a large enough effect; inconclusive = small, poorly fitted or top-dose-only effect; inactive = no such curve, though single readings can be large or run the other way; note: the source files actives as falling curves though it sought activators and does not explain the sign; nearly all actives have a fitted effect of over 65% in size
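FRET quenching reversal measured ClpP activation: 10 microg/mL B. subtilis ClpP at pH 8 with the FRET-FV decapeptide, read at 430 nm after 320 nm excitation. The 20-min minus 0-min signal was scaled between DMSO/no-enzyme wells and ADEP (5.8 microM final).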
Numbers stand for hits; n = inactive; u = inconclusive; x = no result given. An excerpt weighted towards active compounds, which were near 3.7% of everything screened. Unless noted, calls come from the whole dose curve; as a rule, active = well fitted curve in the direction sought with a large enough effect; inconclusive = small, poorly fitted or top-dose-only effect, or another doubt; inactive = no such curve, though single readings can be large; an effect the other way counts as inactive or inconclusive.

The chains behind the UniProt entries cited, without tags or fusion partners.
ATP-dependent Clp protease proteolytic subunit (Bacillus subtilis (strain 168)), P80244, UniProt P80244, whole entry, looked up: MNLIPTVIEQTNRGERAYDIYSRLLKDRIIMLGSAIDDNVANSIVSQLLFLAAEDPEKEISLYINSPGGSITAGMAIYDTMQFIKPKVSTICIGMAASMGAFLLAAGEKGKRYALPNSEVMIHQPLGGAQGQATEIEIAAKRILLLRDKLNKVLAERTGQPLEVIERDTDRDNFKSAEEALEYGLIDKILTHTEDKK

SMILES | Nrf2 block | miR-21 reporter | Nrf2 activator | IL-2 act | A549 tox | ClpP mod
COC(=O)c1ccccc1NC(=O)n1cc(C)cn1 | n | n | n | n | n | 32µM
O=C(CN1CCCC1)Nc1nnc(-c2cccs2)s1 | u | n | 11µM | n | n | n
Cc1occc1C(=O)Nc1nnc(-c2cccs2)s1 | u | n | 11µM | n | n | x
Cc1nnc(Sc2cc(NCCO)c([N+](=O)[O-])c3nonc23)s1 | u | u | n | n | 26µM | n
Cc1cc2c(s1)c1cnn(Cc3ccc4ccccc4c3)c(=O)c1n2C | n | x | x | x | n | x
Oc1[nH]c2ccccc2c1N=Nc1ccc(F)cc1 | u | n | n | 191 | n | n
COC(=O)c1cc2sc(C)cc2n1Cc1cccc(OC)c1 | n | n | n | x | n | n
C(#Cc1ccccc1)Cn1nnc2ccccc21 | u | n | n | n | u | 28µM
CCc1ccc(OCC(=O)Nc2ccc3c(c2)c2ccccc2n3CC)cc1 | u | n | n | x | n | n
CCn1c2ccccc2c2cc(NC(=O)COC(=O)c3cc(OC)c(OC)cc3OC)ccc21 | 16µM | n | n | n | n | u
Nc1ccccc1OC1=NS(=O)(=O)c2ccccc21 | n | x | x | x | n | x
CCOC(=O)/C(C#N)=N/Nc1c(C)n(C)n(-c2ccccc2)c1=O | u | n | n | n | n | x
Cc1c(N/N=C(\C#N)C(=O)c2ccccc2)c(=O)n(-c2ccccc2)n1C | u | n | n | n | 21µM | x
Cc1ccccc1C(=O)/C(C#N)=N/Nc1c(C)n(C)n(-c2ccccc2)c1=O | 8.2µM | n | n | n | 18µM | n
COc1cccc(NC(=O)Cn2c(=O)n(Cc3nc(-c4ccccc4)no3)c(=O)c3ccccc32)c1 | u | n | n | x | n | n
Cc1ccc(OCC(=O)c2cc(C)n(CC(F)(F)F)c2C)c([N+](=O)[O-])n1 | u | n | n | n | n | x
Cc1ccc(OCC(=O)c2cc(C)n(Cc3cccs3)c2C)c([N+](=O)[O-])n1 | 12µM | n | n | n | n | u
C=C1C(=O)O[C@@H]2[C@H]1[C@@H](OC(=O)/C(C)=C/C)C/C(C)=C\C(=O)/C=C(\C)[C@@H]2O | 21µM | u | u | n | u | n
C/C=C(/C)C(=O)O[C@H]1CC(C)=CC(=O)[C@@]2(C)CC[C@@](O)(C(C)C)[C@H]12 | n | x | x | x | n | x
Cc1ccc2oc(=O)c(/C=C(\O)C(C)(C)C)nc2c1 | n | n | u | n | n | n
CC(C)(C)/C(O)=C/c1nc2cc(Cl)ccc2oc1=O | n | n | 10µM | n | n | x
CCOC(=O)C1C(C#N)=C(N)OC(C)=C1c1ccncc1 (stereo not drawn) | x | n | n | n | n | 32µM
CCCCn1nc(C(=O)N(C)CC(=O)Nc2cccc(F)c2)c2ccccc2c1=O | n | x | n | n | n | n
COc1ccc(NC(=O)CN(C)C(=O)CCCc2nc3ccccc3c(=O)[nH]2)cc1 | n | x | n | n | n | n
CCOc1ccc(NC(=O)CN(C)C(=O)CCCc2nc3ccccc3c(=O)[nH]2)cc1OCC | n | x | n | n | n | 16µM
SMILES | Nrf2 block | miR-21 reporter | Nrf2 activator | IL-2 act | A549 tox | ClpP mod
COc1ccc(NC(=O)CN(C)C(=O)c2cc(-c3ccc(Cl)cc3)nc3ccccc23)cc1 | u | x | n | n | n | n
CCOc1ccc(NC(=O)CN(C)C(=O)c2cc(-c3ccc(OC)cc3)nc3ccccc23)cc1OCC | n | x | n | n | n | 32µM
CCOc1ccc(NC(=O)CN(C)C(=O)CCCOc2ccc(Cl)c(C)c2)cc1OCC | 21µM | n | n | n | u | n
CCCn1nc(C(=O)N(C)CC(=O)Nc2ccc(OCC)c(OCC)c2)c2ccccc2c1=O | n | x | n | n | n | 25µM
CN(C)N=Nc1ccc(/C=C2\C=Cc3ccccc32)cc1 | x | x | x | x | x | n
Cc1ccc(/C=C/c2onc(C)c2S(=O)(=O)N2CCC(C(=O)NCc3ccc(OC(C)C)cc3)CC2)cc1 | x | n | n | x | n | u
Cc1cc(OCCCCOc2ccc(S(N)(=O)=O)c(C)c2)ccc1S(N)(=O)=O | 12µM | n | n | n | n | n
CCOc1ccc(Cc2c(Cl)nc(SC)nc2N(C)C)cc1 | 13µM | n | n | n | n | n
CCCc1cnc2c(c1SCC(=O)Nc1ccc([N+](=O)[O-])cc1)c(=O)n(C)c(=O)n2C | x | n | n | x | n | n
Cc1ccc(/C(N)=N/OC(=O)c2cccc(F)c2)cc1 | x | n | 11µM | n | n | n
Cc1ccc(/C(N)=N/OC(=O)c2ccc(F)cc2)cc1 | u | n | n | n | n | n
N/C(=N\OC(=O)c1ccc(F)cc1)c1ccccc1 | u | n | u | n | n | n
N/C(=N\OC(=O)c1cccc(F)c1)c1ccccc1 | u | n | 11µM | n | n | n
CCOC(=O)Cn1c(=O)n(CC2CCCO2)c2nc(-c3ccc(OCC)cc3)nc(C(N)=O)c21 (stereo not drawn) | x | n | n | x | n | n
CCOC(=O)Cc1ccc(NC(=O)NCc2cccn2Cc2ccccc2)cc1 | n | n | n | x | n | n
CC1CCN(S(=O)(=O)c2cccc(C(=O)NCC3CCCO3)c2)CC1 (stereo not drawn) | 13µM | n | n | n | n | n
O=C(COC(=O)c1cc(S(=O)(=O)N2CCOCC2)ccc1O)NCC1CCCO1 (stereo not drawn) | n | n | n | n | n | 35µM
O=C(NCC1CCCO1)c1cccc(S(=O)(=O)N2CCCCC2)c1 (stereo not drawn) | n | x | n | n | n | n
C=CCN(c1ccccc1)S(=O)(=O)c1cccc(C(=O)NCC2CCCO2)c1 (stereo not drawn) | n | n | n | n | n | 28µM
O=C(COc1ccc(S(=O)(=O)N2CCOCC2)cc1)NCC1CCCO1 (stereo not drawn) | n | n | n | n | n | n
CCOC(=O)c1cnc2c(ccc3ccccc32)c1Nc1cccc(C(F)(F)F)c1 | n | n | n | x | n | n
CCOC(=O)c1c(C)nc(-c2ccccc2)nc1N | u | n | 13µM | n | n | n
CCN(CC)C(=O)Cn1c(=O)n(Cc2ccc(C(=O)NCc3ccc(C)cc3)cc2)c(=O)c2ccccc21 | n | n | n | x | n | n
CCN(CC)C(=O)Cn1c(=O)c2ccccc2n2c(=S)sc(-c3cccc(C)c3)c12 | n | n | n | 94 | n | n
S=C(NCc1ccco1)N1CCN(c2cccc(Cl)c2)CC1 | 15µM | n | n | n | n | n
Cc1ccc2oc3c(c(=O)c2c1)C(c1cccc(Br)c1)N(Cc1ccco1)C3=O (stereo not drawn) | u | n | n | n | n | n
